Results on nine compounds are retold here after ChEMBL document CHEMBL6114975, “Discovery of 2,4-quinazolinedione derivatives as LC3B recruiters in the facilitation of protein complex degradations” (Eur J Med Chem, 2025).

Amino acid sequences for entries named in this document (tags omitted). A change or cut given only in a name is not applied to a line headed by its entry.
UniProt O60563, whole entry, looked up: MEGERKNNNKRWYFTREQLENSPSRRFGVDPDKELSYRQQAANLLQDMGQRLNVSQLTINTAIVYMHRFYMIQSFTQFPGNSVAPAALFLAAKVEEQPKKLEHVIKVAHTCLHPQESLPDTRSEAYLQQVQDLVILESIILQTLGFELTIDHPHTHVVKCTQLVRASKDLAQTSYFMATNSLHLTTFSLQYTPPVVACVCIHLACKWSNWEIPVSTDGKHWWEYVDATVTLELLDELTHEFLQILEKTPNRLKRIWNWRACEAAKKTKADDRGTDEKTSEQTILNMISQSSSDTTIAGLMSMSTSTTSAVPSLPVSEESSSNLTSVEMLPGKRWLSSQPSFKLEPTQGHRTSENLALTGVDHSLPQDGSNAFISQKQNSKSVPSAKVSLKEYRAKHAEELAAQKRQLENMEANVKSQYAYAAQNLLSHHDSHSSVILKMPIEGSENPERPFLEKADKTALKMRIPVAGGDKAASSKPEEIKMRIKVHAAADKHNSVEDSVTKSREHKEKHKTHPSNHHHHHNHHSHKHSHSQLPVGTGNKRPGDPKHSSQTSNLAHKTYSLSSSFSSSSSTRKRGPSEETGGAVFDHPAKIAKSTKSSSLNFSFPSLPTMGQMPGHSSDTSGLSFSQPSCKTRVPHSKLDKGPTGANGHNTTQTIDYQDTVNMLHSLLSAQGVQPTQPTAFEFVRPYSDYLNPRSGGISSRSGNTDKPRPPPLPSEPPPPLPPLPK
UniProt P50750, whole entry, looked up: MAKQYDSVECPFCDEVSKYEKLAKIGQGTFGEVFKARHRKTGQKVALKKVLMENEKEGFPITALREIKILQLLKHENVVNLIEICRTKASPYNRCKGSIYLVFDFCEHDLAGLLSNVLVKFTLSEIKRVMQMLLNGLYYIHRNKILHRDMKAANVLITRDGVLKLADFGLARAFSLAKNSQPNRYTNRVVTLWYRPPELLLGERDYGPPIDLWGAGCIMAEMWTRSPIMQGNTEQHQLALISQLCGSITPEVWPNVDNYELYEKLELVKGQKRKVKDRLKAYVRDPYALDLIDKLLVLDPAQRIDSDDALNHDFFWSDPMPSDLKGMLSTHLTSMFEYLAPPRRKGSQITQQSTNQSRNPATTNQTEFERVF
UniProt Q15022: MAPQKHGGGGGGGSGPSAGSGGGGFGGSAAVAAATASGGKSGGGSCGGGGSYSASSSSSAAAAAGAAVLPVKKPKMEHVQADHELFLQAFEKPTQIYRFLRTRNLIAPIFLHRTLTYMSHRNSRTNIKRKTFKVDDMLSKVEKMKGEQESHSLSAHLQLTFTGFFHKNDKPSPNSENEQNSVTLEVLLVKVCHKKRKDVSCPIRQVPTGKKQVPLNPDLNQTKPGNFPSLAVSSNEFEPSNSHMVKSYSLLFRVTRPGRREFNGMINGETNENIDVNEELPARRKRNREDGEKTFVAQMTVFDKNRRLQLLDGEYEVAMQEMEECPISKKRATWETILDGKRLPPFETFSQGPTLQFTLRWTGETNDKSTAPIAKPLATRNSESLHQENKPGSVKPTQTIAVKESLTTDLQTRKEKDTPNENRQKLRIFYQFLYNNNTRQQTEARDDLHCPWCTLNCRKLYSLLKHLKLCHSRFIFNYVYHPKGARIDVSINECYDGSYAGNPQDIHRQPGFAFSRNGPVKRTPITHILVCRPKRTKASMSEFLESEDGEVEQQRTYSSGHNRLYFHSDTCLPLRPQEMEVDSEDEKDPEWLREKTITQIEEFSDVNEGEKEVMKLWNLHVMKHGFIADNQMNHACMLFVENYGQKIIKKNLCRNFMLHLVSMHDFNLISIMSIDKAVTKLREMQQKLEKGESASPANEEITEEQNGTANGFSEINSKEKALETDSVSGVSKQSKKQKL
UniProt Q15910, whole entry, looked up: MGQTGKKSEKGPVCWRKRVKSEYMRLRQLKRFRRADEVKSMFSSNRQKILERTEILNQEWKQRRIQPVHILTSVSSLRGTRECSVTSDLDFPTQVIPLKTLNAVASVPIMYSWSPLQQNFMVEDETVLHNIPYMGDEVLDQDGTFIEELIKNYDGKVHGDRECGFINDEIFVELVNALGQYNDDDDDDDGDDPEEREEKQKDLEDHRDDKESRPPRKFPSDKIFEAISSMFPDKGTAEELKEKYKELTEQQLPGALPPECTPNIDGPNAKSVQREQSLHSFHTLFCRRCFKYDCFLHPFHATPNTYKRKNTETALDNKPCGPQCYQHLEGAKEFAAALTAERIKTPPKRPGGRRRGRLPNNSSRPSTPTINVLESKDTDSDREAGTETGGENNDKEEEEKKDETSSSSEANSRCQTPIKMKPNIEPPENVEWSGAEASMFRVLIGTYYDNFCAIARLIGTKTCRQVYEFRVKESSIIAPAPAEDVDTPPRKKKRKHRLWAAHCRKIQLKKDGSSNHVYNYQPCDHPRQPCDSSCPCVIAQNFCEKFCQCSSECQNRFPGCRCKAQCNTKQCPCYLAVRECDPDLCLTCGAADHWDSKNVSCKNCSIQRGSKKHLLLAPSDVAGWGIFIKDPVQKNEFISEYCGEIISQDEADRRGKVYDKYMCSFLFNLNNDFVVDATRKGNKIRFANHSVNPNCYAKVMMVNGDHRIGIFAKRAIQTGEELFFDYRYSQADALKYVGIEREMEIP
UniProt Q92800, whole entry, looked up: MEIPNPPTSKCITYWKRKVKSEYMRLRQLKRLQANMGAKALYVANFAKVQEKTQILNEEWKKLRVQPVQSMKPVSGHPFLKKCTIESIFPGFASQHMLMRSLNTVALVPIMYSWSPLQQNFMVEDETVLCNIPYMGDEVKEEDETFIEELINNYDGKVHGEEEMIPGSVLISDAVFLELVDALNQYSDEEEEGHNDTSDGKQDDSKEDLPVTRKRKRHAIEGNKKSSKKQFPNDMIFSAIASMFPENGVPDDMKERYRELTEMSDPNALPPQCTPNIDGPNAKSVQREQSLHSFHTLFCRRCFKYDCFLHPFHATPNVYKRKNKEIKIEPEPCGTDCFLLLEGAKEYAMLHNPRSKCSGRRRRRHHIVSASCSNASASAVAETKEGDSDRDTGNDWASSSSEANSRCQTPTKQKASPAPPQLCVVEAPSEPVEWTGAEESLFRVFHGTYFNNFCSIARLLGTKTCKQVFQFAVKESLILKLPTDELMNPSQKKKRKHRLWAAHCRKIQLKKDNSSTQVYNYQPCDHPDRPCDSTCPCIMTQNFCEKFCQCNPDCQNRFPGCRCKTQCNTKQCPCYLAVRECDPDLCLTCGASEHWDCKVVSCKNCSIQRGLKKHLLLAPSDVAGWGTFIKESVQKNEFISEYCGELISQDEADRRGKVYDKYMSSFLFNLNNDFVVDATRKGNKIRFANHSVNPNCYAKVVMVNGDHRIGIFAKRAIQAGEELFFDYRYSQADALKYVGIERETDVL
UniProt O75530, whole entry, looked up: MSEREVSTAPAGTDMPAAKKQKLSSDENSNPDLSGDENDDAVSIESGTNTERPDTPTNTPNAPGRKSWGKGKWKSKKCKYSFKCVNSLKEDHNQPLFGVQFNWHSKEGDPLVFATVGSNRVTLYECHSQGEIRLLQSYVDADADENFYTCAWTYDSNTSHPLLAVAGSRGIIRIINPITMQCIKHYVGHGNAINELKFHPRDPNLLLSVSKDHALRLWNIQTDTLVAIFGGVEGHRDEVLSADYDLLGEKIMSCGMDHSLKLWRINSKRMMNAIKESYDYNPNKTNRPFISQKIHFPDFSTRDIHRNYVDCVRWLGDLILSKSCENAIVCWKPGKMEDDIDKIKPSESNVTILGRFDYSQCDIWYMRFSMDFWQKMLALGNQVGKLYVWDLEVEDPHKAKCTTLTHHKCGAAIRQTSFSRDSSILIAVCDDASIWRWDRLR

Calls of active or inactive are those of the source. The rule behind the calls is not given here.

Common to all, as to assay type: cell-based
In assay [1] the target is T1, Microtubule-associated protein 1 light chain 3 beta/Cyclin-T1/Cyclin-dependent kinase 9 (Homo sapiens) (UniProt O60563+P50750+Q9GZQ8). As to the kind of experiment: ATTEC activity at LC3B/CDK9/Cyclin T1 in human WSUDLCL2 cells assessed as CDK9 degradation at 50 nM preincubated with bafilomycin A1 followed by compound addition measured after 24 hrs by immunoblotting analysis. In general terms: In western blotting, separated proteins are transferred to a membrane and probed.

Assay [2] has as its target T1, Microtubule-associated protein 1 light chain 3 beta/Cyclin-T1/Cyclin-dependent kinase 9 (Homo sapiens). As to the kind of experiment: ATTEC activity at LC3B/CDK9/Cyclin T1 in human WSUDLCL2 cells assessed as degradation of Cyclin T1 at 100 nM incubated for 24 hrs by immunoblot analysis.
The target is the same in assay [3]. Briefly: ATTEC activity at LC3B/CDK9/Cyclin T1 in LC3B knockout HEK293T cells assessed as degradation of CDK9 at 50 nM incubated for 24 hrs by immunoblotting analysis.
Assay [4] has the same target. Briefly: ATTEC activity at LC3B/CDK9/Cyclin T1 in human WSUDLCL2 cells assessed as downregulation of Mcl-1 expression at 100 nM incubated for 24 hrs by immunoblotting analysis.
Assay [5] shares this target. Briefly: ATTEC activity at LC3B/CDK9/Cyclin T1 in human WSUDLCL2 cells assessed as CDK9 degradation at 50 nM preincubated with MG132 followed by compound addition measured after 24 hrs by immunoblotting analysis.
Assay [6] concerns the target Microtubule-associated protein 1 light chain 3 beta/Cyclin-dependent kinase 9 (Homo sapiens) (UniProt P50750+Q9GZQ8). As to the kind of experiment: ATTEC activity at LC3B/CDK9 in human WSUDLCL2 cells assessed as degradation of CDK9 at 1 uM incubated for 24 hrs by immunoblot analysis.
In assay [7] the target is Microtubule-associated protein 1 light chain 3 beta/Polycomb protein SUZ12 (Homo sapiens) (UniProt Q15022+Q9GZQ8). Briefly: ATTEC activity at LC3B/SUZ12 in human U2932 cells assessed as SUZ12 degradation at 10 uM incubated for 48 hrs by immunoblotting analysis.
In assay [8] the target is Microtubule-associated protein 1 light chain 3 beta/Histone-lysine N-methyltransferase EZH2 (Homo sapiens) (UniProt Q15910+Q9GZQ8). As to the kind of experiment: ATTEC activity at LC3B/EZH2 in human U2932 cells assessed as EZH2 degradation at 10 uM incubated for 48 hrs by immunoblotting analysis.
In assay [9] the target is Microtubule-associated protein 1 light chain 3 beta/Histone-lysine N-methyltransferase EZH1 (Homo sapiens) (UniProt Q92800+Q9GZQ8). As to the kind of experiment: ATTEC activity at LC3B/EZH1 in human U2932 cells assessed as EZH1 degradation at 10 uM incubated for 48 hrs by immunoblotting analysis.
In assay [10] the target is Microtubule-associated protein 1 light chain 3 beta/Polycomb protein EED (Homo sapiens) (UniProt O75530+Q9GZQ8). Briefly: ATTEC activity at LC3B/EED in human U2932 cells assessed as EED degradation at 10 uM incubated for 48 hrs by immunoblotting analysis.
The target in assay [11] is T1, Microtubule-associated protein 1 light chain 3 beta/Cyclin-T1/Cyclin-dependent kinase 9 (Homo sapiens). Briefly: ATTEC activity at LC3B/CDK9/Cyclin T1 in human WSUDLCL2 cells assessed as degradation of CDK9 at 100 nM incubated for 24 hrs by immunoblotting analysis.
Assay [12] deals with U2932. Briefly: Induction of EZH2 degradation in human U2932 cells at 10 uM incubated for 48 hrs by immunoblotting analysis.
For assay [13], the target named is Polycomb protein EED (Homo sapiens) (UniProt O75530). As to the kind of experiment: Induction of EED degradation in human U2932 cells at 10 uM incubated for 48 hrs by immunoblotting analysis.
Assay [14] has as its system U2932. As to the kind of experiment: Induction of EZH1 degradation in human U2932 cells at 10 uM incubated for 48 hrs by immunoblotting analysis.

Regarding `CCn1c(=O)c2ccc(Cl)cc2n(CCCN2CCC(C(=O)Nc3ncc(SCc4ncc(C(C)(C)C)o4)s3)CC2)c1=O`, in assay [1], the Activity entry is recorded as “Active; Degradation Of Cdk9 Is Partially Rescued”. For the same compound, the result in assay [2], in assay [4] and in assay [5] was Active. Besides, the result in assay [3] was inactive.
In the case of `CC(C)(C)c1cnc(CSc2cnc(NC(=O)C3CCN(CCn4c(=O)n(Cc5ccccc5)c(=O)c5ccc(Cl)cc54)CC3)s2)o1`, in assay [6], the result was Active.
As to `CCn1c(=O)c2ccc(Cl)cc2n(CCOCCOCCN2CCN(c3ccc(-c4cc(C(=O)NCc5c(C)cc(C)[nH]c5=O)c5cnn(C(C)C)c5c4)cn3)CC2)c1=O`, the result in assay [7], in assay [8], in assay [9] and in assay [10] was Active.
Turning to `CC(C)(C)c1cnc(CSc2cnc(NC(=O)C3CCN(CC(=O)NCCOCCOCCOCCNc4cccc5c4C(=O)N(C4CCC(=O)NC4=O)C5=O)CC3)s2)o1` (configuration not stated), the results for the Activity entry in assay [2], in [11] and in [4] were “Active; Compound Exhibited Slight Degradation”, “Active; Compound Exhibited Dramatic Degradation” and “Active; Compound Exhibited Slight Downregulation”, respectively.
As for `CC(C)(C)c1cnc(CSc2cnc(NC(=O)C3CCN(CCCn4c(=O)n(Cc5ccccc5)c(=O)c5cccnc54)CC3)s2)o1`, the outcome in [2] and in assay [4] was Active.
In the case of `CC(C)(C)c1cnc(CSc2cnc(NC(=O)C3CCN(CCCn4c(=O)n(Cc5ccncc5)c(=O)c5cccnc54)CC3)s2)o1`, the result in [2] and in [4] was Active.
For the compound `CCn1c(=O)c2cccnc2n(CCCN2CCC(C(=O)Nc3ncc(SCc4ncc(C(C)(C)C)o4)s3)CC2)c1=O`, the result in assay [2] and in assay [4] was Active.
Turning to `Cc1cc(C)c(CNC(=O)c2cc(-c3ccc(N4CCN(CCNC(=O)CCOCCNc5cccc6c5C(=O)N(C5CCC(=O)NC5=O)C6=O)CC4)nc3)cc3c2cnn3C(C)C)c(=O)[nH]1` (configuration not stated), the result with U2932 [12] was Active. Further, the outcome (in [13]; in the assay with U2932 [14]) was inactive.
Take `CC(C)(C)c1cnc(CSc2cnc(NC(=O)C3CCN(CCCn4c(=O)n(Cc5ccncc5)c(=O)c5ccc(Cl)cc54)CC3)s2)o1`: in assay [1], the Activity entry is on record as “Active; Degradation Of Cdk9 Is Partially Rescued”. For the same compound, the result in assay [2], in assay [4] and in assay [5] was Active. Further, the outcome in assay [3] was inactive.
